Literature values as cited in patent publication US20250288585A1, “SYNERGISTIC COMPOSITIONS FOR ENHANCED HAIR GROWTH AND METHODS FOR TREATING HAIR LOSS” (The Johns Hopkins University, priority 2024, published 2025).

Legend:
[1] = topical application

increase in minoxidil absorption (2% topical minoxidil solution twice daily for 20 days with once-daily 0.05% tretinoin cream): increased nearly threefold
increase in minoxidil absorption (2% topical minoxidil solution twice daily for 20 days with once-daily vehicle control cream): 1.3 fold
fraction of topical minoxidil absorbed through the skin [1]: Approximately 1.4%
Compound: Nc1cc(N2CCCCC2)nc(N)[n+]1[O-] [minoxidil]

Where two headings read alike, the source gives them in different places.
